High-throughput results (PubChem BioAssay)
This is a sample that favours compounds with a hit; in the whole collection about 2.3% have one here.
UUG fidelity: modulators of start codon recognition fidelity in yeast | S. cerevisiae UUG-firefly luciferase reporter, luminescence/redox ratio | activity score, % at 18.7 µM | 350,000 tested, 0.13% active;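 active = replicate mean at a twofold rise or more, about +100% in these data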;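 also: firefly luciferase made from a UUG start codon reports start codon fidelity; reporter light over untreated wells divided by growth signal over untreated wells; some hits fall short of that in this replicate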
NRP1-CendR mod: modulators of CendR peptide binding to NRP-1, primary screen, biochemical, fluorescence polarization, uHTS | 360,000 compounds, 0.85% hits | inhibition, % at 25 µM | FAM-RPARPAR peptide binding to NRP-1 | Neuropilin-1 (Homo sapiens), O14786;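 active = inhibition or corrected inhibition above about 18%, plus a signal ratio from 0.5 to 1.5, limit read from the data, passing the limit was not always enough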
ARFGAP1 inh: inhibitors of rat ARFGAP1 GAP activity, primary screen, biochemical, fluorescence polarization, GDP tracer; ADP-ribosylation factor GTPase-activating protein 1 (Rattus norvegicus), Q62848; Arfgap1-stimulated ARF1 GTP hydrolysis, GDP FP detection; inhibition, % at 16.5 µM; 360,000 compounds, 0.26% hits; AID 651572, 2012;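 active = inhibition above a per-plate limit, mean inhibition of low control wells plus 3 SD, cut at about 25% in these data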;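 note: 0% = DMSO wells with enzyme and 100% = wells lacking Arfgap1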
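Replicates: Single well per compound | Assay system: Truncated rat Arfgap1 GAP domain | Control set: No-Arfgap1 wells (100%) versus DMSO full-reaction wells (0%) | Times: Enzyme reaction 120 min at 25 °C after 20 min preincubation | Reagent: Human ARF1(Δ1-17)-GTP substrate | Measured by: Tracer-displacement fluorescence polarization with EDTA stop, 620/688 nm | Measure: Percent inhibition of Arfgap1-stimulated GTP hydrolysis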
MC4R antag cAMP: MC4R antagonists of cAMP signaling, primary screen, cell-based, TR-FRET, antagonist arm of biased-ligand search; Melanocortin receptor 4 (Homo sapiens), P32245; MC4R-expressing cells, MTII-stimulated cAMP, LANCE TR-FRET; inhibition, % at 6.5 µM; 360,000 compounds, 0.48% hits;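 active = inhibition above its plate's cutoff, the mean of tested wells on that plate plus 3 SD, cut at about 29% in these data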;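 note: 0% = Melanotan II alone and 100% = Melanotan II plus saturating MCL0020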
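System: U2OS-MC4R stable cell line; Technique: Eu-cAMP/anti-cAMP TR-FRET, emission 671 nm; Repeats: single well per compound; Also added: Melanotan II; Dosing: one concentration, 6.5 µM nominal; Schedule: 30-min compound, 1-h challenge, 1-h detection, room temperature.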
ASAP1 inh: inhibitors of human ASAP1 ArfGAP activity, primary screen, biochemical, fluorescence polarization. ASAP1-stimulated ARF1 GTP hydrolysis, GDP FP detection. inhibition, % at 16.5 µM. 360,000 compounds, 0.19% hits; in the data active = inhibition above about 25%;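 note: 0% = vehicle with enzyme and substrate and 100% = no enzyme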
MC4R ag barr: MC4R agonists recruiting beta-arrestin, primary screen, cell-based, luminescence, agonist arm of biased-ligand search | 360,000 compounds, 0.98% hits | AID 540308, 2011 | Melanocortin receptor 4 (Homo sapiens), P32245 | activation, % at 8.9 µM | U2OS MC4R beta-arrestin complementation; percent of melanotan II response, DMSO zero;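 active = activation above a per-plate cutoff, the mean activation of sample wells on that plate plus 3 SD, cut at about 8% in these data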
cAMP nonselect: nonselective cAMP signaling inhibitors, parental cells, counter-screen for MC4R biased antagonist project, cell-based, TR-FRET, U2OS, forskolin, triplicate; LANCE TR-FRET; 1,600 compounds, 26% hits; shares compounds with MC4R antag cAMP; inhibition, % at 6.5 µM;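 active = mean inhibition over triplicates above the low-control well mean plus 3 SD, set per campaign, cut at about 13% in these data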;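 note: signal is single emission at 671 nm which falls as cellular cAMP rises; 0% = forskolin-stimulated wells and 100% = buffer without forskolin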
MC4R antag conf: MC4R cAMP antagonists, retest, confirmation, cell-based, TR-FRET. shares compounds with MC4R antag cAMP. MC4R-expressing cells, MTII-stimulated cAMP. inhibition, % at 6.5 µM. 1,600 compounds, 27% hits. AID 602195, 2012; in the data active = inhibition above about 29%;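 note: 0% = agonist stimulated wells alone and 100% = agonist stimulated wells plus saturating reference antagonist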
Active calls of the source: *; · = no result.

The chains behind the UniProt entries cited, without tags or fusion partners. Residues count along the entry.
Neuropilin-1 (Homo sapiens), O14786, UniProt O14786, whole entry, looked up: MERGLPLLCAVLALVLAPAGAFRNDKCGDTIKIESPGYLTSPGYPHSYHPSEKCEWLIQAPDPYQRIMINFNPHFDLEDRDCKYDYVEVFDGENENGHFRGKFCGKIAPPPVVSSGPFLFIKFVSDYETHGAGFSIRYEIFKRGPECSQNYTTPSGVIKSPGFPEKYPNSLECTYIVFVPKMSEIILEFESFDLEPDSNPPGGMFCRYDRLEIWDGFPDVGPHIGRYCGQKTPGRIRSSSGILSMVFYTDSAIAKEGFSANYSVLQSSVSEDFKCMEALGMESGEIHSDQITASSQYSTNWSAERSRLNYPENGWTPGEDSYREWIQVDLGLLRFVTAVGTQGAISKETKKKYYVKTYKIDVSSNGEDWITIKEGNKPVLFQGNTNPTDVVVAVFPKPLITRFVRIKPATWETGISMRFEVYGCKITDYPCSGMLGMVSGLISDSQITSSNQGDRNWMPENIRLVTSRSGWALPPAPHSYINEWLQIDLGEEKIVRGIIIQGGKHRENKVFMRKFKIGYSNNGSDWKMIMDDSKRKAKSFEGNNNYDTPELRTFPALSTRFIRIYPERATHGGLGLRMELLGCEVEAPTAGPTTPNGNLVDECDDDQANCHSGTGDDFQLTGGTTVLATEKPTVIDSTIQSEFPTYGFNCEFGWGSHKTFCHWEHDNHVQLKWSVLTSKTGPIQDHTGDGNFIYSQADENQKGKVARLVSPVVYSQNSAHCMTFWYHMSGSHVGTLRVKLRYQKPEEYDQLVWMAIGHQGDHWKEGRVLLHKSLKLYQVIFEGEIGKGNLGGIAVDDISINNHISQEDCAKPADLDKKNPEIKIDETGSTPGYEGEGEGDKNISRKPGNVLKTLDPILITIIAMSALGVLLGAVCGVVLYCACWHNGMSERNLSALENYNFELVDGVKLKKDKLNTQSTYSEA
ADP-ribosylation factor GTPase-activating protein 1 (Rattus norvegicus), Q62848, UniProt Q62848, whole entry, looked up: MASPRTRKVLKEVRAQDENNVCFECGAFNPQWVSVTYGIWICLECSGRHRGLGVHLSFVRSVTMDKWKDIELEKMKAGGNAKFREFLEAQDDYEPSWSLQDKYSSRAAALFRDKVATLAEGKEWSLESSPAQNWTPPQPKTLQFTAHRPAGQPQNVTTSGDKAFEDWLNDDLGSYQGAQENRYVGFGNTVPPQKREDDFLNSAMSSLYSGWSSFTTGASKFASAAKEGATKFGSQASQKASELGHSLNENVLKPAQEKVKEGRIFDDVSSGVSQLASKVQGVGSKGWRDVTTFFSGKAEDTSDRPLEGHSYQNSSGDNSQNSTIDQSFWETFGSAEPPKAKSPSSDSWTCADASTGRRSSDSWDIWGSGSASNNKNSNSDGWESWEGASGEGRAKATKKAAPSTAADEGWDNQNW
ADP-ribosylation factor GTPase-activating protein 1 (Rattus norvegicus), Q62848, UniProt Q62848, 1-136 limits assumed: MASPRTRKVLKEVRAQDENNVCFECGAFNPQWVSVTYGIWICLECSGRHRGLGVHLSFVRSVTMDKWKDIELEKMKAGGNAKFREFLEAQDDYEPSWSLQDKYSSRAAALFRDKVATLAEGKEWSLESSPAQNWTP
Melanocortin receptor 4 (Homo sapiens), P32245, UniProt P32245, whole entry, looked up: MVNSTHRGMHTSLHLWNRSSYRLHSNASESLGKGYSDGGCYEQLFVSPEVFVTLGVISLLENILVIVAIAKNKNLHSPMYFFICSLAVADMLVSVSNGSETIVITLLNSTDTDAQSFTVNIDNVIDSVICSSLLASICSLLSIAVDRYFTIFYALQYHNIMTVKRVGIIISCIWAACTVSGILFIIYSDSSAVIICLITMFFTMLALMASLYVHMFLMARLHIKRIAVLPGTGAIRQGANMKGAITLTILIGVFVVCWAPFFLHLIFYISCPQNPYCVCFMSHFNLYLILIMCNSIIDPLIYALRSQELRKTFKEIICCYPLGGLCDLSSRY

| smiles | UUG fidelity | NRP1-CendR mod | ARFGAP1 inh | MC4R antag cAMP | ASAP1 inh | MC4R ag barr | cAMP nonselect | MC4R antag conf |
| --- | --- | --- | --- | --- | --- | --- | --- | --- |
| Cc1[nH]c(=O)[nH]c(=O)c1S(=O)(=O)Nc1cccc([N+](=O)[O-])c1C | -12 | -9 | -4 | 30* | -7 | 0 | 1 | -8 |
| Cc1cc(C(=O)CCl)c(C)n1CCc1ccc(F)cc1 | -5 | 4 | 3 | 31* | -11 | 8 | 12 | 33* |
| COc1ccc(CCn2c(C)cc(C(=O)CCl)c2C)cc1OC | · | -10 | -5 | 30* | 22 | 7 | 11 | 26 |
| Cc1cc(C(=O)CCl)c(C)n1CCc1ccc(Cl)cc1 | -1 | -6 | 11 | 20 | 3 | 8 | · | · |
| S=c1[nH]c2ccccc2n2c(=S)[nH]nc12 | -19 | -7 | 23 | 31* | -14 | -3 | 46* | 74* |
| O=C(Nc1ccccc1C(=O)N1CCCCCC1)c1ccc(Cl)cc1 | · | 9 | -7 | 19 | 1 | -2 | · | · |
| O=C(Nc1ccccc1-c1ccccc1)c1ccc(Cl)c([N+](=O)[O-])c1 | · | 16 | 5 | 56* | 0 | 0 | 31* | 74* |
| CN1CCN(c2ccccc2NC(=O)c2ccc(N3CCCC3)c([N+](=O)[O-])c2)CC1 | -4 | 2 | 6 | -1 | 12 | -2 | · | · |
| O=C(Nc1ccccc1C(=O)N1CCCC1)c1ccc(Cl)c([N+](=O)[O-])c1 | · | -5 | 2 | 36* | -2 | 2 | 5 | 25 |
| O=C(Nc1ccccc1N1CCCCC1)c1ccc(Cl)c([N+](=O)[O-])c1 | -4 | 12 | -4 | 41* | 8 | 1 | 3 | 51* |
| O=C(Nc1ccc(Nc2ccccc2)cc1)c1ccc(Cl)c([N+](=O)[O-])c1 | -14 | 9 | 8 | 10 | 10 | 0 | · | · |
| Cc1nc2ccc(NC(=O)c3ccc(Cl)c([N+](=O)[O-])c3)cc2s1 | -16 | -10 | 4 | 30* | -12 | 0 | 10 | 20 |
| CO[C@H]1CN(C)C(=O)c2ccc(NC(=O)C3CCCCC3)cc2OC[C@@H](C)NC[C@H]1C | -6 | · | · | · | · | · | · | · |
| CCCN1C[C@H](C)[C@H](OC)CN(C)C(=O)c2cc(NS(=O)(=O)c3cn(C)cn3)ccc2OC[C@H]1C | 0 | · | · | · | · | · | · | · |
| C[C@@H]1CN([C@H](C)CO)S(=O)(=O)c2ccc(C3=CCCCC3)cc2O[C@H]1CN(C)C(=O)c1ccccc1 | 13 | · | · | · | · | · | · | · |
| CCOC(=O)c1c(NC(=O)CCl)sc(CN(C)C)c1-c1ccccc1 | · | 16 | 4 | 48* | -2 | -3 | 23* | 41* |
| CCOC(=O)c1c(NC(=O)CN2CCCCC2)sc(CN(C)C)c1-c1ccccc1 | · | 9 | -1 | 4 | -8 | 2 | · | · |
| CC(C)CCNC(=O)CN(CC1CCCO1)C(=O)CCC(=O)Nc1nccs1 (stereo unspecified) | -11 | 8 | 2 | -3 | 3 | 1 | · | · |
| CCC(C)(C)NC(=O)CN(CC1CCCO1)C(=O)CCC(=O)Nc1nccs1 (stereo unspecified) | -3 | 9 | 7 | 35* | -21 | 0 | -4 | -6 |
| COc1ccccc1CNC(=O)C(C)Sc1ccsc1[N+](=O)[O-] (stereo unspecified) | · | -19 | -17 | 30* | -8 | -1 | 0 | -5 |
| COc1cc(C(=O)OC2CCOC2=O)cc(Cl)c1OC (stereo unspecified) | -17 | 2 | 4 | 30* | -1 | 0 | 16* | 30* |
| Cc1ccc2c(c1)N(Cc1cccc(Cl)c1)C(=O)c1cccnc1O2 | · | 2 | -6 | 39* | 11 | 2 | -2 | -2 |
| CC(=O)N1N=C(c2ccccc2)CC1c1cccs1 (stereo unspecified) | 2 | 3 | 1 | 29* | -5 | 0 | -3 | -15 |
| O=C(c1ccccc1)N1N=C(c2ccccc2)CC1c1cccs1 (stereo unspecified) | -7 | 1 | 2 | 12 | -2 | 2 | · | · |
| C[C@@H]1CN([C@H](C)CO)S(=O)(=O)c2ccc(C#C[C@@H](C)O)cc2O[C@@H]1CN(C)C(=O)CC1CC1 | -6 | · | · | · | · | · | · | · |

Arranged by formula weight (falling): part of the list above
| smiles | UUG fidelity | NRP1-CendR mod | ARFGAP1 inh | MC4R antag cAMP | ASAP1 inh | MC4R ag barr | cAMP nonselect | MC4R antag conf |
| --- | --- | --- | --- | --- | --- | --- | --- | --- |
| CC(C)CCNC(=O)CN(CC1CCCO1)C(=O)CCC(=O)Nc1nccs1 (stereo unspecified) | -11 | 8 | 2 | -3 | 3 | 1 | · | · |
| O=C(Nc1ccccc1-c1ccccc1)c1ccc(Cl)c([N+](=O)[O-])c1 | · | 16 | 5 | 56* | 0 | 0 | 31* | 74* |
| O=C(c1ccccc1)N1N=C(c2ccccc2)CC1c1cccs1 (stereo unspecified) | -7 | 1 | 2 | 12 | -2 | 2 | · | · |
| COc1cc(C(=O)OC2CCOC2=O)cc(Cl)c1OC (stereo unspecified) | -17 | 2 | 4 | 30* | -1 | 0 | 16* | 30* |
| Cc1cc(C(=O)CCl)c(C)n1CCc1ccc(F)cc1 | -5 | 4 | 3 | 31* | -11 | 8 | 12 | 33* |

Remaining list, next part
| smiles | UUG fidelity | NRP1-CendR mod | ARFGAP1 inh | MC4R antag cAMP | ASAP1 inh | MC4R ag barr | cAMP nonselect | MC4R antag conf |
| --- | --- | --- | --- | --- | --- | --- | --- | --- |
| CCC(C)Nc1nc(Cl)nc(N(C#N)CN2C(=O)c3ccccc3S2(=O)=O)n1 (stereo unspecified) | · | -5 | 4 | 48* | -2 | -1 | 23* | 40* |
| Cc1cccn2c(CN3CCSCC3)c(C(=O)N3CCOCC3)nc12 | -3 | 4 | 3 | 29* | 14 | 0 | 1 | 4 |
| S=c1[nH]nc(-c2ccccn2)n1/N=C/c1ccc(-c2ccccc2Br)o1 | · | -7 | -8 | 94* | -1 | -1 | 58* | 126* |
| C[C@@H]1CN([C@@H](C)CO)S(=O)(=O)c2ccc(Br)cc2O[C@@H]1CN(C)Cc1ccccc1 | -7 | · | · | · | · | · | · | · |
| O=C(COC(=O)CNC(=O)c1cccc(F)c1)NCCC1=CCCCC1 | 12 | 0 | 9 | 29* | -7 | -1 | 18* | 40* |
| CC(C)C[C@H](N)c1nnc(S(=O)(=O)Cc2ccc(F)cc2)o1 | -5 | 12 | · | 43* | · | -4 | 23* | 36* |
| CC(C)C[C@H](N)c1nnc(SCC(=O)Nc2ccc(Br)cc2)o1 | -6 | -4 | 6 | -1 | 8 | -1 | · | · |
| O=S(=O)(N[C@H]1CC[C@H](CCn2cc(-c3cccc(F)c3)nn2)O[C@@H]1CO)c1ccccc1 | -1 | · | · | · | · | · | · | · |
| COc1ccccc1C(=O)NC(=S)N1CCCc2ccccc21 | -7 | -12 | 9 | 5 | 9 | -2 | · | · |
| COc1ccccc1C(=O)NC(=S)N1CCc2ccccc21 | · | 0 | -1 | 30* | 4 | 0 | -6 | -4 |
| C[C@@H](NC(=O)C[C@H]1C[C@@H]2c3cc(NS(C)(=O)=O)ccc3O[C@@H]2[C@H](CO)O1)c1ccccc1 | -17 | · | · | · | · | · | · | · |
